Test system: motoneuron cells derived from iPS cells having SOD1-L144FVX mutation
Assay: survival of motoneuron cells induced from ALS patient iPS cells (SOD1 mutation)
Conditions: added at 7 days after addition of doxycycline, cultured for 7 more days

Nc1nc2ccc(OC(F)(F)F)cc2s1 [riluzole]
number of surviving cells: number of surviving cells was high
